Chains of the proteins cited; added tags and fusions are not shown. Residues count along the entry.
UniProt P25774, 115-331: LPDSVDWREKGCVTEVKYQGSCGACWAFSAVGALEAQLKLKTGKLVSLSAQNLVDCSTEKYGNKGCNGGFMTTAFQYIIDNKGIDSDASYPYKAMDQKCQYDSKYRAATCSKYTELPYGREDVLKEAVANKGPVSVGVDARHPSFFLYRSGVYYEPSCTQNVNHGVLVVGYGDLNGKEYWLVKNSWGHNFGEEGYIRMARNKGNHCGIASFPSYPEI

In patent US20090099157A1, “TETRAHYDRO-PYRAZOLO-PYRIDINE THIOETHER MODULATORS OF CATHEPSIN S” (priority 2007, published 2009):

Target: Recombinant human cathepsin S (CatS) (Homo sapiens, UniProt P25774)
Assay: biochemical

Row | SMILES | IC50
1 | O=C(CSc1cc(-c2nn(CC(O)CN3CC4CCCC4C3)c3c2CNCC3)ccc1C(F)(F)F)N1CCCC1 (stereo not shown) [Example 299, 1-(Hexahydrocyclopenta[c]pyrrol-2(1H)-yl)-3-(3-{3-[(2-oxo-2-pyrrolidin-1-ylethyl)sulfanyl]-4-(trifluoromethyl)phenyl}-4,5,6,7-tetrahydro-1H-pyrazolo[4,3-c]pyridin-1-yl)propan-2-ol] | 2110 nM
2 | CCCNCCSc1cc(-c2nn(CCCN3CCN(C4CC4)CC3)c3c2CN(S(C)(=O)=O)CC3)ccc1C(F)(F)F [Example 342, N-(2-{[5-{1-[3-(4-Cyclopropylpiperazin-1-yl)propyl]-5-(methylsulfonyl)-4,5,6,7-tetrahydro-1H-pyrazolo[4,3-c]pyridin-3-yl}-2-(trifluoromethyl)phenyl]sulfanyl}ethyl)propan-1-amine] | 440 nM
3 | CSCC(=O)N1CCc2c(c(-c3ccc(C(F)(F)F)c(SCCN4CCOCC4)c3)nn2CC(O)CN2CCCCC2)C1 (stereo not shown) [Example 368, 1-(5-[(Methylsulfanyl)acetyl]-3-{3-[(2-morpholin-4-ylethyl)sulfanyl]-4-(trifluoromethyl)phenyl}-4,5,6,7-tetrahydro-1H-pyrazolo[4,3-c]pyridin-1-yl)-3-piperidin-1-ylpropan-2-ol] | 1340 nM
4 | O=C(CSc1cc(-c2nn(CC(O)CN3CCC(O)CC3)c3c2CNCC3)ccc1C(F)(F)F)N1CCCC1 (stereo not shown) [Example 294, 1-[2-Hydroxy-3-(3-{3-[(2-oxo-2-pyrrolidin-1-ylethyl)sulfanyl]-4-(trifluoromethyl)phenyl}-4,5,6,7-tetrahydro-1H-pyrazolo[4,3-c]pyridin-1-yl)propyl]piperidin-4-ol] | 4430 nM
5 | CN1CCCN(CC(O)Cn2nc(-c3ccc(C(F)(F)F)c(SCCN4CCCC4)c3)c3c2CCN(S(C)(=O)=O)C3)CC1 (stereo not shown) [Example 382, 1-(4-Methyl-1,4-diazepan-1-yl)-3-[5-(methylsulfonyl)-3-{3-[(2-pyrrolidin-1-ylethyl)sulfanyl]-4-(trifluoromethyl)phenyl}-4,5,6,7-tetrahydro-1H-pyrazolo[4,3-c]pyridin-1-yl]propan-2-ol] | 4760 nM
6 | CS(=O)(=O)N1CCc2c(c(-c3ccc(C(F)(F)F)c(SCC(=O)NCCc4ccccc4)c3)nn2CC(O)CN2CCC(N3CCCC3=O)CC2)C1 (stereo not shown) [Example 74, 2-[5-(1-{2-Hydroxy-3-[4-(2-oxo-pyrrolidin-1-yl)-piperidin-1-yl]-propyl}-5-methanesulfonyl-4,5,6,7-tetrahydro-1H-pyrazolo[4,3-c]pyridin-3-yl)-2-trifluoromethyl-phenylsulfanyl]-N-phenethyl-acetamide] | 2000 nM
7 | CC1CCCN1C(=O)CSc1cc(-c2nn(CCCN3CCC(N4CCCC4=O)CC3)c3c2CN(S(C)(=O)=O)CC3)ccc1C(F)(F)F (stereo not shown) [Example 76, 1-{1-[3-(5-Methanesulfonyl-3-{3-[2-(2-methyl-pyrrolidin-1-yl)-2-oxo-ethylsulfanyl]-4-trifluoromethyl-phenyl}-4,5,6,7-tetrahydro-pyrazolo[4,3-c]pyridin-1-yl)-propyl]-piperidin-4-yl}-pyrrolidin-2-one] | 100 nM
8 | CC(=O)NC1CCN(C[C@H](O)Cn2nc(-c3ccc(C(F)(F)F)c(SCCN4CCCC4)c3)c3c2CCN(C(=O)C(N)=O)C3)CC1 [Example 249, 2-(1-{(2S)-3-[4-(Acetylamino)piperidin-1-yl]-2-hydroxypropyl}-3-{3-[(2-pyrrolidin-1-ylethyl)sulfanyl]-4-(trifluoromethyl)phenyl}-1,4,6,7-tetrahydro-5H-pyrazolo[4,3-c]pyridin-5-yl)-2-oxoacetamide] | 50 nM
9 | CC1(C)CCN(CC(O)Cn2nc(-c3ccc(C(F)(F)F)c(SCCN4CCOCC4)c3)c3c2CCN(S(C)(=O)=O)C3)CC1 (stereo not shown) [Example 176, 1-(4,4-Dimethylpiperidin-1-yl)-3-[5-(methylsulfonyl)-3-{3-[(2-morpholin-4-ylethyl)sulfanyl]-4-(trifluoromethyl)phenyl}-4,5,6,7-tetrahydro-1H-pyrazolo[4,3-c]pyridin-1-yl]propan-2-ol] | 500 nM

Second part, the compound after the results:

Row | IC50 | SMILES
10 | 390 nM | CS(=O)(=O)N1CCc2c(c(-c3ccc(C(F)(F)F)c(SCCN4CCC(F)CC4)c3)nn2CC(O)CN2CC[C@H](O)C2)C1 (stereo partly drawn) [Example 413, (3S)-1-(3-{3-[3-{[2-(4-Fluoropiperidin-1-yl)ethyl]sulfanyl}-4-(trifluoromethyl)phenyl]-5-(methylsulfonyl)-4,5,6,7-tetrahydro-1H-pyrazolo[4,3-c]pyridin-1-yl}-2-hydroxypropyl)pyrrolidin-3-ol]
11 | 140 nM | CC(=O)N1CCN(CCSc2cc(-c3nn(CC(O)CN4CCN(c5ccccc5)CC4)c4c3CN(S(C)(=O)=O)CC4)ccc2C(F)(F)F)CC1 (stereo not shown) [Example 826, 1-{3-[3-{[2-(4-Acetylpiperazin-1-yl)ethyl]sulfanyl}-4-(trifluoromethyl)phenyl]-5-(methylsulfonyl)-4,5,6,7-tetrahydro-1H-pyrazolo[4,3-c]pyridin-1-yl}-3-(4-phenylpiperazin-1-yl)propan-2-ol]
12 | 2650 nM | O=C(C1CCN(C[C@H](O)Cn2nc(-c3ccc(C(F)(F)F)c(SCCN4CCC(F)CC4)c3)c3c2CCNC3)CC1)N1CCCC1 [Example 512, (2S)-1-{3-[3-{[2-(4-Fluoropiperidin-1-yl)ethyl]sulfanyl}-4-(trifluoromethyl)phenyl]-4,5,6,7-tetrahydro-1H-pyrazolo[4,3-c]pyridin-1-yl}-3-[4-(pyrrolidin-1-ylcarbonyl)piperidin-1-yl]propan-2-ol]
13 | 340 nM | CCOc1ccccc1N1CCN(C[C@H](O)Cn2nc(-c3ccc(C(F)(F)F)c(SCCN4CCC(F)CC4)c3)c3c2CCNC3)CC1 [Example 609, (2S)-1-{4-[2-(Ethyloxy)phenyl]piperazin-1-yl}-3-{3-[3-{[2-(4-fluoropiperidin-1-yl)ethyl]sulfanyl}-4-(trifluoromethyl)phenyl]-4,5,6,7-tetrahydro-1H-pyrazolo[4,3-c]pyridin-1-yl}propan-2-ol]
14 | 180 nM | CC1CCN(CCSc2cc(-c3nn(C[C@@H](O)CN4CCC(C)CC4)c4c3CN(S(C)(=O)=O)CC4)ccc2C(F)(F)F)CC1 [Example 444, (2S)-1-(4-Methylpiperidin-1-yl)-3-{3-[3-{[2-(4-methylpiperidin-1-yl)ethyl]sulfanyl}-4-(trifluoromethyl)phenyl]-5-(methylsulfonyl)-4,5,6,7-tetrahydro-1H-pyrazolo[4,3-c]pyridin-1-yl}propan-2-ol]
15 | 30 nM | CS(=O)(=O)N1CCc2c(c(-c3ccc(C(F)(F)F)c(SCC(=O)N4CCOCC4)c3)nn2CC(O)CN2CCC(N3CC(O)CC3=O)CC2)C1 (stereo not shown) [Example 814, 4-Hydroxy-1-(1-{2-hydroxy-3-[5-(methylsulfonyl)-3-{3-[(2-morpholin-4-yl-2-oxoethyl)sulfanyl]-4-(trifluoromethyl)phenyl}-4,5,6,7-tetrahydro-1H-pyrazolo[4,3-c]pyridin-1-yl]propyl}piperidin-4-yl)pyrrolidin-2-one]
16 | 75 nM | CC(C)(C)OC(=O)NC1CCN(C(=O)CSc2cc(-c3nn(CCCN4CCC(N5CCCC5=O)CC4)c4c3CN(S(C)(=O)=O)CC4)ccc2C(F)(F)F)CC1 [Example 892, 1,1-Dimethylethyl {1-[({5-[5-(methylsulfonyl)-1-{3-[4-(2-oxopyrrolidin-1-yl)piperidin-1-yl]propyl}-4,5,6,7-tetrahydro-1H-pyrazolo[4,3-c]pyridin-3-yl]-2-(trifluoromethyl)phenyl}sulfanyl)acetyl]piperidin-4-yl}carbamate]
17 | 510 nM | OC(CN1CCN(c2cccc(C(F)(F)F)c2)CC1)Cn1nc(-c2ccc(C(F)(F)F)c(SCCN3CCCCC3)c2)c2c1CCNC2 (stereo not shown) [Example 634, 1-(3-{3-[(2-Piperidin-1-ylethyl)sulfanyl]-4-(trifluoromethyl)phenyl}-4,5,6,7-tetrahydro-1H-pyrazolo[4,3-c]pyridin-1-yl)-3-{4-[3-(trifluoromethyl)phenyl]piperazin-1-yl}propan-2-ol]
18 | 590 nM | CC(=O)NCC1CCN(CC(O)Cn2nc(-c3ccc(C(F)(F)F)c(SCCN4CCCC4)c3)c3c2CCN(S(C)(=O)=O)C3)CC1 (stereo not shown) [Example 596, N-[(1-{2-Hydroxy-3-[5-(methylsulfonyl)-3-{3-[(2-pyrrolidin-1-ylethyl)sulfanyl]-4-(trifluoromethyl)phenyl}-4,5,6,7-tetrahydro-1H-pyrazolo[4,3-c]pyridin-1-yl]propyl}piperidin-4-yl)methyl]acetamide]
19 | 1920 nM | CN(C)C1CCN(CC(O)Cn2nc(-c3ccc(C(F)(F)F)c(SCCN4CCOCC4)c3)c3c2CCN(S(C)(=O)=O)C3)CC1 (stereo not shown) [Example 553, 1-[4-(Dimethylamino)piperidin-1-yl]-3-[5-(methylsulfonyl)-3-{3-[(2-morpholin-4-ylethyl)sulfanyl]-4-(trifluoromethyl)phenyl}-4,5,6,7-tetrahydro-1H-pyrazolo[4,3-c]pyridin-1-yl]propan-2-ol]
20 | 190 nM | O=C(CSc1cc(-c2nn(CC(O)CN3CCC(N4CCCC4)CC3)c3c2CN(C(=O)CO)CC3)ccc1C(F)(F)F)N1CCOCC1 (stereo not shown) [Example 628, 1-[5-(Hydroxyacetyl)-3-{3-[(2-morpholin-4-yl-2-oxoethyl)sulfanyl]-4-(trifluoromethyl)phenyl}-4,5,6,7-tetrahydro-1H-pyrazolo[4,3-c]pyridin-1-yl]-3-(4-pyrrolidin-1-ylpiperidin-1-yl)propan-2-ol]
21 | 150 nM | CC1CCN(CC(O)Cn2nc(-c3ccc(C(F)(F)F)c(SCCN4CCC(F)CC4)c3)c3c2CCN(S(C)(=O)=O)C3)CC1 (stereo not shown) [Example 473, 1-{3-[3-{[2-(4-Fluoropiperidin-1-yl)ethyl]sulfanyl}-4-(trifluoromethyl)phenyl]-5-(methylsulfonyl)-4,5,6,7-tetrahydro-1H-pyrazolo[4,3-c]pyridin-1-yl}-3-(4-methylpiperidin-1-yl)propan-2-ol]
22 | 10 nM | CS(=O)(=O)N1CCc2c(c(-c3ccc(C(F)(F)F)c(SCC(=O)N4CC[C@@H](O)C4)c3)nn2CC(O)CN2CCC(c3ccc(C#N)cc3)CC2)C1 (stereo partly drawn) [Example 822, 4-[1-(2-Hydroxy-3-{3-[3-({2-[(3R)-3-hydroxypyrrolidin-1-yl]-2-oxoethyl}sulfanyl)-4-(trifluoromethyl)phenyl]-5-(methylsulfonyl)-4,5,6,7-tetrahydro-1H-pyrazolo[4,3-c]pyridin-1-yl}propyl)piperidin-4-yl]benzonitrile]
